Results reported in patent publication EP4474386A1, “ANTHRACYCLINES” (priority 2023, dated 2024).
“Also recorded” adds a separate entry of the source.

Test system: human myelogenous leukemic cell line K562
Test: Assay 1: Short-term growth inhibition viability assay (CellTiter-Blue)
Format: cell-based
Settings: K562 cells, FIG. 2A
Description: Cells were seeded into 96-well format (e.g. 2000 cells/well for K562, Mjs, or U2O cells). 24 hours after seeding, cells were treated with indicated compounds for 2 hours at various concentrations. Subsequently, compounds were removed, and cells were left to grow for an additional 72 hours. Cell viability was measured using the CellTiter-Blue viability assay (Promega). Relative survival was normalized to the untreated control and corrected for background signal.
K562 cells (B. Pang, Leiden University Medical Center, the Netherlands) were maintained in RPMI-1640 medium supplemented with 8% FCS. MelJuSo cells were maintained in IMDM supplemented with 8% FCS. MelJuSo cells stably expressing PAGFP-H2A were maintained in IMDM supplemented with 8% FCS and G-418, as described in Pang, B., Qiao, X., Janssen, L. et al. Nat Commun 4, 1908 (2013). U2Os cells (ATCC® HTB-96) were maintained in DMEM medium supplemented with 8% FCS. Cell lines were maintained in a humidified atmosphere of 5% CO2 at 37°C, regularly tested for the absence of mycoplasma and the origin of cell lines was validated using STR analysis.
Assay 1. Anthracyclines are often used in the treatment of acute myeloid leukaemia and other haematological malignancies. […] The data is recorded in FIG. 2A where the IC50 values for all compounds are plotted. […]

Which “cytotoxicity (in words, compared with reference anthracyclines)” value does the source give for `CC(=O)[C@]1(O)Cc2c(O)c3c(c(O)c2[C@@H](O[C@H]2C[C@H](N(C)C)[C@H](O)[C@H](C)O2)C1)C(=O)c1ccccc1C3=O` [Compound 18, N,N-dimethylidarubicin] here?
The value was “considerably more cytotoxic than doxorubicin (1); also recorded: improved or comparable toxicity”.
